According to paper PMC12474298 (Viruses, 2025):

Columns and labels:
IMPα3 (human IMPα3ΔIBB) = molecular target: T1, IMPα3 (human IMPα3ΔIBB) (Homo sapiens, UniProt O00629); assay: Fluorescence polarization assay, FITC-NLS peptide vs importin α3ΔIBB
T1 sequence (O00629 64-521 limits assumed): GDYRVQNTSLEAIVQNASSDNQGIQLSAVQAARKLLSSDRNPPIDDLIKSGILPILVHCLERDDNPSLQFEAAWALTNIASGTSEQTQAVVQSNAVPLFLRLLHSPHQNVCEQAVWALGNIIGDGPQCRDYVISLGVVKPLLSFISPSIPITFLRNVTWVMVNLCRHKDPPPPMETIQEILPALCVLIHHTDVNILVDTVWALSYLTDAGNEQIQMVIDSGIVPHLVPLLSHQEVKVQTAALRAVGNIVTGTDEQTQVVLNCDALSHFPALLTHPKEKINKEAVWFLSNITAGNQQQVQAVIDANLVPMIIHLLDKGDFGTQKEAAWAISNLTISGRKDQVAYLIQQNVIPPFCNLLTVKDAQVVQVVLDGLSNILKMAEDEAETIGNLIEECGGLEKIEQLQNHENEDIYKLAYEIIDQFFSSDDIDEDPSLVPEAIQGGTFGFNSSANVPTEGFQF

IMPα1 (human IMPα1ΔIBB) = IMPα1 (human IMPα1ΔIBB) (Homo sapiens, UniProt P52292); assay: Fluorescence polarization assay, FITC-NLS peptide vs importin α1ΔIBB
IMPα2 (mouse IMPα2ΔIBB) = IMPα2 (mouse IMPα2ΔIBB) (Mus musculus, UniProt P52293); assay: Fluorescence polarization assay, FITC-NLS peptide vs importin α2ΔIBB

SMILES: CC[C@H](C)[C@H](NC(=O)[C@H](CCCNC(=N)N)NC(=O)[C@H](CCCNC(=N)N)NC(=O)[C@H](C)NC(=O)[C@H](CCCCN)NC(=O)[C@H](CCCCN)NC(=O)[C@@H](NC(=O)[C@H](CCC(=O)O)NC(=O)CCCCCNC(=S)Nc1ccc2c(c1)C(=O)OC21c2ccc(O)cc2Oc2cc(O)ccc21)[C@@H](C)O)C(=O)N[C@@H](CC(C)C)C(=O)N[C@@H](CCC(=O)O)C(N)=O [R1495A]
- Change in dissociation constant (KD) on mutation, IMPα3 (IMPα3 (human IMPα3ΔIBB)): significant increase in the dissociation constant (KD)
- Change in dissociation constant (KD) on mutation, IMPα1 (IMPα1 (human IMPα1ΔIBB)): significant increase in the dissociation constant (KD)
- Change in dissociation constant (KD) on mutation, IMPα2 (IMPα2 (mouse IMPα2ΔIBB)): significant increase in the dissociation constant (KD)
